Source: patent US5643884A, “Lupane triterpenoid derivatives” (Glycomed Incorporated, priority 1993, dated 1997)

Molecular target: P-selectin
Test: Elisa, inhibition of P-selectin binding to 2,3 sLex
Conditions: P-selectin 300 ng/ml; read-out: IC50 for inhibiting P-selectin binding to 2,3 sLex
Procedure: Certain of the invention compounds were tested for their capacity to inhibit P-selectin binding to HL-60 cells, and to a chemical known to bind to P-selectin, 2,3 sLex. The following materials and procedures were used.
Compound (3) of Example 3 and betulinic acid were solubilized in DMF to yield 100 mM solutions.
P-Selectin Detection Solutions. Goat F(ab')2 anti-human IgG (Fc spec.)-biotin and streptavidin-AP were diluted 1:1000 in 1% BSA-TBS with 1 mM Ca^++. An Elisa assay was utilized to measure P-selectin binding to 2,3 sLex, and P-selectin was added at 300 ng/ml. An Elisa assay was also used to assay for the capacity of the invention compounds to inhibit HL-60 cell binding to P-selectin. HL-60 cells were used, and P-selectin was added at 200 ng/ml.
2,3 sLex was coated at 30 pmoles/well to Probind microtiter plates for Elisa. The glycolipid was added at 50 μl/well in 50% MeOH and allowed to evaporate overnight. Elisa plates and HL-60 assay plates were blocked with 5% BSA-TBS Ca^++ for more than an hour at room temperature. The plates were washed with TBS without Ca^++.
Briefly, the assays were conducted as follows. Compound (3) and betulinic acid were added to P-selectin detection solutions at 4, 2, 1, 0.5, 0.25 and 0.125 mM for the HL-60 based assay, and at 2, 1, 0.5, 0.25, 0.125 and 0.063 mM for the assay involving 2,3 sLex. […]

`C=C(C)[C@@H]1CC[C@]2(C(=O)O)CC[C@]3(C)[C@H](CC[C@@H]4[C@@]5(C)CC[C@H](O)C(C)(C)[C@@H]5CC[C@]43C)[C@@H]12` [betulinic acid] was tested, and the IC50 was ~125 µM.
